{"sequences": {"note": "The chains behind the UniProt entries cited, without tags or fusion partners.", "UniProt P50613, whole entry": "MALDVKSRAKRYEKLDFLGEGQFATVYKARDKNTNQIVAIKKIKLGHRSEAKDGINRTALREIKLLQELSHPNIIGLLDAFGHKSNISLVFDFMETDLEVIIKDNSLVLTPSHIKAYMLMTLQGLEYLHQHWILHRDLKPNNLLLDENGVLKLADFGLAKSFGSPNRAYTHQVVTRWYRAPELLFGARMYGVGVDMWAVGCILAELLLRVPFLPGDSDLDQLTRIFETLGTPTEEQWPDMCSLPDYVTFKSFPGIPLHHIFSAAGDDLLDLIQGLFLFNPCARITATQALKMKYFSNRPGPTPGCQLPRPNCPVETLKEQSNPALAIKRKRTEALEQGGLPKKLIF", "UniProt P51948, whole entry partner": "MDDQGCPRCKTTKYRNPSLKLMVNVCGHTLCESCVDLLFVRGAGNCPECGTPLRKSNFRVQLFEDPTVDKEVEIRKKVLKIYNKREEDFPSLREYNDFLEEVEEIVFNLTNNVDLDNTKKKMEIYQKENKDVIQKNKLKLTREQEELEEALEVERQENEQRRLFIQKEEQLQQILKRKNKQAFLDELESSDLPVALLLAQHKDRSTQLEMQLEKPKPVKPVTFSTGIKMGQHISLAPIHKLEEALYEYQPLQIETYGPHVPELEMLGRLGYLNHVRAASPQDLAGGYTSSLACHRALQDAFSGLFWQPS", "UniProt P51946, whole entry partner": "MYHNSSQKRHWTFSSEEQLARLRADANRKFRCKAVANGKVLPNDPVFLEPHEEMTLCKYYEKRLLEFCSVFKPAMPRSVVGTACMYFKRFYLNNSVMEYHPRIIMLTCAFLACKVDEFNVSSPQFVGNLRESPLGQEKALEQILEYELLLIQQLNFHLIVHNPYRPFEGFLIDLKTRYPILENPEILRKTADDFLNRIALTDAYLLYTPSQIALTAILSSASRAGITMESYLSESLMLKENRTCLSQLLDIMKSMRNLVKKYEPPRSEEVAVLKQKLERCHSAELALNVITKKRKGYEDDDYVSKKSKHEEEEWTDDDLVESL"}, "source": "patent US20240254138A1", "about": "“TRICYCLIC PYRIMIDINES AS CYCLIN-DEPENDENT KINASE 7 (CDK7) INHIBITORS” (JANSSEN PHARMACEUTICA NV, priority 2021, published 2024)", "key": {"[1]": {"biological_target": "CDK7/cyclinH/MAT1 trimeric complex (Homo sapiens, UniProt P50613)", "assay": "In vitro CDK7 assay, potency of irreversible covalent inhibitors (kinact/KI), coupled PK/LDH ADP readout at 340 nm", "settings": "20 nM enzyme"}, "[2]": {"test_system": "RNA Polymerase II Serine 5 phosphorylation (Rpb1 CTD, downstream substrate of CDK7) in A549 cells", "assay": "Imaging-based cellular RNA PolII Ser5 phosphorylation assay in A549 cells", "settings": "averaged over all measurements", "experimental": "(§1) To evaluate inhibition of CDK7 kinase activity, a 384-well automated imaging assay was used. This assay detects Serine 5 phosphorylation on a unique heptapeptide sequence in the C-terminal domain of Rpb1 subunit of RNA polymerase II, the downstream substrate of CDK7. This heptapeptide sequence is repeated up to 52 times in the CTD of Rpb1. […]\n(§2) RNA Polymerase II Serine 5 phosphorylation was detected using a specific rabbit Phospho-Rpb1 CTD (Ser5) antibody. […]\n(§3) After removing blocking buffer 20 μl 1/1000 primary antibody rabbit Phospho-Rpb1 CTD (Ser5) antibody was added which binds to the phosphorylated Serine5 of the heptapeptide sequences in the CTD of Rpb1. […] Last, plates were washed 2 times with 30 μl D-PBS and wells were filled with 40 μL D-PBS, plates were sealed (Thermowell sealing tape) and stored at 4° C. until reading. Plates were read with Opera Phenix (Perkin Elmer) with 10× air objective. Data were calculated and analyzed in Phaedra.\n(§4) IC50 values were calculated using the following formula: […]"}, "[3]": {"test_system": "RNA Polymerase II Serine 5 phosphorylation in A549 cells overexpressing CDK7-mutant (C312S)", "assay": "Imaging-based cellular RNA PolII Ser5 phosphorylation assay in A549 cells overexpressing CDK7-mutant (C312S)", "format": "cell-based, human", "settings": "averaged over all measurements", "experimental": "as §1, §2, §3, §4"}}, "data": [{"smiles": "CC#CC(=O)N1CC(N2CCC(c3cc4c(c(C#N)n3)OCc3c(N5CCOCC5)ccnc3N4)CC2)C1", "values": [{"measurement": "CDK7 (20 nM enz.) (kinact, s^−1)", "setting": "[1]", "result": "5.231e-05", "unit": "s⁻¹"}, {"measurement": "CDK7 (20 nM enz.) (kinact/KI, M^−1*s^−1)", "setting": "[1]", "result": 1158.02, "unit": "M⁻¹ s⁻¹"}, {"measurement": "Ki", "setting": "[1]; read-out: CDK7 (20 nM enz.) (KI)", "result": 45.2, "unit": "nM"}, {"measurement": "CDK7_A549 Wild-type CDK7 (pIC50)", "setting": "[2]", "result": 6.8}, {"measurement": "CDK7_A549 mutant hCDK7(pIC50)", "setting": "[3]", "result": "<5"}]}]}
